Two molecules from US11339183B2, “Phosphate and phosphonate derivatives of 7-amino-5-thio-thiazolo[4,5-d]pyrimidines and their use in treating conditions associated with elevated levels of CX3CR1 and/or CX3CL1” (KANCERA AB, priority 2018, dated 2022) can be followed below.

This data set in a line: Further stability studies: aqueous solutions stored 60 days at room temperature and/or 40° C. (HPLC-MS). The data set is classed as physicochemical. Conditions: aqueous solution 1.2 mg/mL, 1d, 1n with Na2HPO3, 1q, 4f, 4g with DMSO and (2-hydroxypropyl)-β-cyclodextrin. Here is the method:
Aqueous solutions of several of the example compounds were prepared at concentrations of 1.2 mg/mL (10 mg/mL for Example 1 (no salt)) according to the following procedures. • i) Examples 1 b, 2h and 3 (diammonium salts) were dissolved in pure water. • ii) Examples 1d (diammonium salt) and 1n (monoammonium salt) were suspended in water and Na2HPO3 was added until all of the compound was in solution. • iii) Examples 1q, 4f an 4g (no salts) were dissolved in water with added DMSO (100 μL) and (2-hydroxypropyl)-β-cyclodextrin was added until all of the compound was in solution.
The stability of the compounds to long-term storage in aqueous solution at room temperature and/or 40° C. was then assessed by analysis of the solution by HPLC-MS after 60 days.

Take `CCOP(=O)(Nc1nc2nc(S[C@@H](C)c3ccccc3)nc(N[C@@H](CO)CC(C)C)c2s1)OCC`: the “% Area by HPLC (60 days)” value by setting is: (40° C.) 82.1 % Area; (room temperature) 95.7 % Area.
For `COP(=O)(Nc1nc2nc(S[C@@H](C)c3ccccc3)nc(N[C@@H](CO)CC(C)C)c2s1)OC`, in that order: 45.1 % Area and 91.6 % Area.
